The test system of test [1] is Platelet. The experiment in a line: Inhibition of ADP-stimulated platelet aggregation in human platelet rich plasma by 96-well format based turbidimetric method. Format: functional. An outline of the steps: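 Citrated (ACD-A) donor blood was spun at 150g for 15 min at room temperature to give PRP. PRP was adjusted with PPP to 3 × 10^8 platelets/mL. Compound, diluted in NaCl, was preincubated with hPRP for 5 min before ADP was added.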

The test system of test [2] is Platelet. In words: Inhibition of ADP-stimulated platelet aggregation in human platelet rich plasma by light transmission aggregometry based Born method. Type of test: functional, cell-based. An outline of the steps:
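Buffered-citrate blood was spun at 340g for 15 min to give PRP, adjusted with PPP to 3 × 10^8 platelets/mL. ADP was then added and light transmission recorded for 6 min under the same conditions. % inhibition came from AUC; IC50 was averaged from at least triplicate runs.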

The term IC50 denotes the concentration that gives 50% inhibition. High values mean a need for much substance, low ones inhibition by little substance. On to `CCOC(=O)N1CCN(C(=O)[C@H](CCNS(C)(=O)=O)NC(=O)c2cc(OCC(=O)N3CCC[C@H]3C(=O)NC3CCC3)n(-c3ccccc3)n2)CC1`, for which half-maximal inhibition in the test with Platelet [1] (IC50) was put at 130 nM.
In the case of `O=C(O)CC[C@H](NC(=O)c1cc(OCC(=O)N2CCC[C@H]2C(=O)NC2CCC2)n(-c2ccccc2)n1)C(=O)N1CCN(C(=O)OC2CCC2)CC1`, inhibition in the test on Platelet [2] was half-maximal at 42 nM (IC50). This lies in the double-digit nanomolar range.
Still for that read-out and setting: under `CCOC(=O)N1CCN(C(=O)[C@H](CCC(=O)O)NC(=O)c2cc(OCC(=O)N3CCC[C@H]3C(=O)NC3CCC3)n(-c3ccccc3)n2)[C@H](C)C1` stands 21 nM.
Take `CCOC(=O)N1CCN(C(=O)[C@H](CCC(=O)O)NC(=O)c2cc(OCC(=O)N3CCC[C@H]3c3ccccc3)n(-c3ccccc3)n2)CC1`: inhibition in the test on Platelet [1] was half-maximal at 290 nM (IC50).

The values above are taken from ChEMBL document CHEMBL2169809, “Identification of high-affinity P2Y₁₂ antagonists based on a phenylpyrazole glutamic acid piperazine backbone” (J Med Chem, 2012).
